In test [1] the target is AChE, eel (acetylcholinesterase, EC 3.1.1.7) (Electrophorus electricus, UniProt O42275). In words: Inhibition and reactivation kinetics of eel AChE by TDPI. Type of test: biochemical, electric eel.
In another test the test system is rat-hemidiaphragm. Put plainly: Isolated rat-hemidiaphragm: AChE activity and tetanic tension under soman.
The test system of a further test is soman poisoning in mice. In words: Protection of mice against soman. To be noted: in conjunction with anticholinergics and oxime.
The subject of test [2] is AChE from rat-brain homogenate. Put plainly: Inhibition of rat-brain homogenate AChE by TDPI. To be noted: incubated with AChE from rat-brain homogenate.
Test [3] has as its system Butyrylcholinesterase (BuChE, EC 3.1.1.8) from mice serum. In words: Inhibition of mice serum BuChE by TDPI.
The target of test [4] is BuChE, horse (butyrylcholinesterase, EC 3.1.1.8) (Equus caballus, UniProt P81908). In words: Inhibition and reactivation kinetics of horse serum BuChE by TDPI. Type of test: biochemical.

Protein sequences, listed by entry. Tags and fused reporters are not part of them. Residues count along the entry.
UniProt O42275, 24-633 limits assumed: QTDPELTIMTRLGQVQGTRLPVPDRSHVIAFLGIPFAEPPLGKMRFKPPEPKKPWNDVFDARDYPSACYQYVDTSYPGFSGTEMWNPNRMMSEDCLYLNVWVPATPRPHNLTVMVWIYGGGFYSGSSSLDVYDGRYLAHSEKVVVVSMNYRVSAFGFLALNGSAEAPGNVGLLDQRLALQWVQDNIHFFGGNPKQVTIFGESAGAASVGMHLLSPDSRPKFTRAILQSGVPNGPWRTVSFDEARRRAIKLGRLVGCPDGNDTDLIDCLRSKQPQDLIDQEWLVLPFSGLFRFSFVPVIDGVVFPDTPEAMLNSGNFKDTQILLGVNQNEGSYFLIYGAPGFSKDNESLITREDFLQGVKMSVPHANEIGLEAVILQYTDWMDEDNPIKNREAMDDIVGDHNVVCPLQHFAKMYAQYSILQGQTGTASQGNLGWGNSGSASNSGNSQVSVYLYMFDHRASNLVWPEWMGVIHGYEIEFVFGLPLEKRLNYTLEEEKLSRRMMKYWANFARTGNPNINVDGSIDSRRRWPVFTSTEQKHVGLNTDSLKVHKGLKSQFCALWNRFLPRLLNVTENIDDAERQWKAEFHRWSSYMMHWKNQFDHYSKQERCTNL
UniProt P81908, whole entry: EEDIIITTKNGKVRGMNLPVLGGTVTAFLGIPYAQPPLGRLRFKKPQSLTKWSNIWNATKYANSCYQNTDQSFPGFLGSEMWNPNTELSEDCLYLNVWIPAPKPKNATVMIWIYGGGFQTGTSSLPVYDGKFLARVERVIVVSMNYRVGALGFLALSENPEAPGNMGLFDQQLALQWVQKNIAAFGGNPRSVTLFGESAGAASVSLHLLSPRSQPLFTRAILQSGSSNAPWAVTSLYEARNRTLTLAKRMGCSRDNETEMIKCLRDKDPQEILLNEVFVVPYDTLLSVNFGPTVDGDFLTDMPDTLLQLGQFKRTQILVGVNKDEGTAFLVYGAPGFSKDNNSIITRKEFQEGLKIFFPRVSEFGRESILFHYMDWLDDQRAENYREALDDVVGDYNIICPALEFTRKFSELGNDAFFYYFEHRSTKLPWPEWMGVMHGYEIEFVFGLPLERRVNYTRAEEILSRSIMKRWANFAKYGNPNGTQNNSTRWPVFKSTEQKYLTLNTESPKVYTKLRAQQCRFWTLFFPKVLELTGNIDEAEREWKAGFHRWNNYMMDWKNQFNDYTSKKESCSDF

Turning to `C[C@@H]1CCO[P@](=O)(Oc2cccc([N+](C)(C)C)c2)O1` (relative stereo), in the test on AChE (4-methyl isomers of III), the “affinity to AChE (KI) relative to TDPI” value is reported as “increased the affinity” and the “kS (spontaneous reactivation) relative to TDPI” value is “produced a decrease in kS”.
For the compound `C[C@@H]1CCO[P@@](=O)(Oc2cccc([N+](C)(C)C)c2)O1` (relative stereo), in the test with AChE (4-methyl isomers of III), the “affinity to AChE (KI) relative to TDPI” value is “decreased significantly relative to TDPI”, the “kS (spontaneous reactivation) relative to TDPI” value is given as “decreased significantly relative to TDPI” and the “phosphorylation of AChE relative to TDPI” value is reported as “decreased significantly relative to TDPI”.
In the case of `C[N+](C)(C)c1cccc(OP2(=O)OCCCO2)c1`, the “time course of AChE inhibition” value in test [1] (incubated with AChE from electric eel) and in test [2] was “the decrease in enzyme activity approached a steady state” each time. In addition, the “ki (ki = k'/KI, Scheme 1)” value in test [1] (pH 7.0, AChE, eel) was determined as 8400 M⁻¹ min⁻¹; in test [4] (pH 7.0, BuChE, horse, from initial slopes), 18000 M⁻¹ min⁻¹. Moreover, the “kr (reactivation by 2-PAM)” value is 0.38 min⁻¹ in test [1] (pH 7.0, AChE, eel, 0.5 mM 2PAM, kS subtracted) and 0.05 min⁻¹ in test [4] (pH 7.0, BuChE, horse, 0.5 mM 2PAM, kS subtracted). Besides, the “%-aging” value in test [1] (pH 7.0, AChE, eel, after 20 hr in presence of 0.5 mM TDPI) is recorded as 2%; in test [4] (pH 7.0, BuChE, horse, after 20 hr in presence of 0.5 mM TDPI), 69%. Also, the “kS (spontaneous reactivation)” value in test [1] (pH 7.0, AChE, eel, from direct measurements) was found to be 0.07 min⁻¹; in test [4] (pH 7.0, BuChE, horse, from direct measurements), 0.005 min⁻¹. Moreover, the “rate of decrease of AChE activity in hemidiaphragm” value with rat-hemidiaphragm (TDPI added to isolated rat-hemidiaphragm) is reported as “AChE activity decreased at a rate similar to AChE from either rats-brain homogenate or electric eel”. In addition, the “time to restoration of AChE activity to original level after removal by washing” value in the test with rat-hemidiaphragm (isolated rat-hemidiaphragm) was in the range of 15 to 30 min. In the test on rat-hemidiaphragm (pre-treated rat-hemidiaphragm), the “protection from irreversible block of tetanic tension caused by soman” value is on record as “protected the rat-hemidiaphragm from irreversible block of tetanic tension”. This compound also had a protection against soman in the test on soman poisoning in mice of 5 ×LD50. Besides, the “protection of AChE against irreversible phosphorylation” value in the test on AChE (equal concentration/affinity ratio I/KI = 10, TDPI compared with TMPH (II)) is “provided better protection of AChE against irreversible phosphroylation than II”. For the same compound, the Ki in the test with AChE (read-out: Ki (Michaelis complex with AChE), non-covalent reversible complex AChE.TDPI) came to 13 µM. Also, the “time course of BuChE inhibition” value in test [3] and in test [4] (horse serum BuChE) was “Steady state was not developed” in each case.

Source of the values: US4472320A (priority 1981, dated 1984).
